Literature values, collected in patent US8986954B2, “DNA encoding function modifying Nav1.7 antibodies” (UCB Pharma S.A., priority 2009, dated 2015).

Amino acid sequences for entries named in this document (tags omitted).
UniProt Q15858, whole entry: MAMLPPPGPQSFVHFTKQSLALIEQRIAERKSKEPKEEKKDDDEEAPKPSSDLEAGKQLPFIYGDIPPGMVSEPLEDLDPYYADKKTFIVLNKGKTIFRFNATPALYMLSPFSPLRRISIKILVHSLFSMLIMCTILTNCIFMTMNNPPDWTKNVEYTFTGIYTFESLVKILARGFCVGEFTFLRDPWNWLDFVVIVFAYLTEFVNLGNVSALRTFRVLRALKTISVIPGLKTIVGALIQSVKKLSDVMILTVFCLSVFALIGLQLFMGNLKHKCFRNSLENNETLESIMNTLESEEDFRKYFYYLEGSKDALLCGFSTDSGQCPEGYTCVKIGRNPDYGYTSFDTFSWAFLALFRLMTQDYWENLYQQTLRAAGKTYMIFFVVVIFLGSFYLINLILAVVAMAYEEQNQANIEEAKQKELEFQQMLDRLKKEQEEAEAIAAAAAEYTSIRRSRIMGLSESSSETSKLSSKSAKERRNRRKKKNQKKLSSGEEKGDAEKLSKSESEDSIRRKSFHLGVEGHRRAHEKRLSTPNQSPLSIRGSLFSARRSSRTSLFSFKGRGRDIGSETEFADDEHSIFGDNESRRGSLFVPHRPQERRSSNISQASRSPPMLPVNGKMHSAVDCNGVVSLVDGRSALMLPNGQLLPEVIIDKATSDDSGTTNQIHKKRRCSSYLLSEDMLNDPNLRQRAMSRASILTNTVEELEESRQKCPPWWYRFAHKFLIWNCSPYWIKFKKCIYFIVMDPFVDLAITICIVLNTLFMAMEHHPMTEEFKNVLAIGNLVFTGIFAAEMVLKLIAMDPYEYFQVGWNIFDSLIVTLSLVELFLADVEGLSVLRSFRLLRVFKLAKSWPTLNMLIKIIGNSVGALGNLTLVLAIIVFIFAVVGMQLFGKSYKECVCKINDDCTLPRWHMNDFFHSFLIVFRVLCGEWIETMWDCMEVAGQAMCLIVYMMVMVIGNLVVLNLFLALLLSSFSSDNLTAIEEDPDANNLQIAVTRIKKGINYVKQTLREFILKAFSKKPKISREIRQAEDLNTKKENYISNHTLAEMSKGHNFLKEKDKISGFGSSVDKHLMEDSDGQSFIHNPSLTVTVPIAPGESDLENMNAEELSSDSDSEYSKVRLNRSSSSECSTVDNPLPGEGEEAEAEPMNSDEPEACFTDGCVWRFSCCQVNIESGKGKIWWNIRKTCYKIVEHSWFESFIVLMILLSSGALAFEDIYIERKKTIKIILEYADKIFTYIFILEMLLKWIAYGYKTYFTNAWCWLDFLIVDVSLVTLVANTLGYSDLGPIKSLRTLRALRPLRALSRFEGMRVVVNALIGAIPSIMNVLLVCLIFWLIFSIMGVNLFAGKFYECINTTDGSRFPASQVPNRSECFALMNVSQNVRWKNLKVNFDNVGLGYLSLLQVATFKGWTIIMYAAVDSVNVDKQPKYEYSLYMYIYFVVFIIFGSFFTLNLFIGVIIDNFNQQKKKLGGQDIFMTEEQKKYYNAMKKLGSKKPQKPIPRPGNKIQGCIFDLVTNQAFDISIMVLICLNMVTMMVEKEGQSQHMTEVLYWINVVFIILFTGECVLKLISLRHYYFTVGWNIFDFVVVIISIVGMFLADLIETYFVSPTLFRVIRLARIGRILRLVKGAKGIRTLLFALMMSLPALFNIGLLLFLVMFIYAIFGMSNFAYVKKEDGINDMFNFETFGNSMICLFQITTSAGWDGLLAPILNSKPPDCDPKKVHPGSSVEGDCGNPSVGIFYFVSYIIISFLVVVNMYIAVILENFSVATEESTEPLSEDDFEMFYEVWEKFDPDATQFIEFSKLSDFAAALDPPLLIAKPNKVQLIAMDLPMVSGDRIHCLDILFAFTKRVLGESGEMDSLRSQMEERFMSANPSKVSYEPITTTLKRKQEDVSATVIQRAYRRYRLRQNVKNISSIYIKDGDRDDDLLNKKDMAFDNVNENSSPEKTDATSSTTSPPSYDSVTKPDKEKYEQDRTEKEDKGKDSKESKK

Biological target: Nav1.7 (Homo sapiens, UniProt Q15858)
Settings: Mol Pharmacol 74:1476-1484, 2008; cited from earlier work

ProTxII
selectivity of Nav1.7 inhibition: selectively inhibit Nav1.7
